PMC11245519, “Ubiquitous purine sensor modulates diverse signal transduction pathways in bacteria” (Nature Communications, 2024)

Experiments:
R14 (WP_021170906-LBD) = R14 (WP_021170906-LBD) (Sporomusa ovata, UniProt A0A0U1L1T7); experiment: Thermal shift assay of the R14 LBD; format: binding; details: change in Tm, threshold 2 °C
R1 (WP_219614703-LBD) = R1 (WP_219614703-LBD) (Aeromonas salmonicida, UniProt T0PLV6); format: binding; details: change in Tm, threshold 2 °C
R10 (WP_110129388-LBD) = format: binding, Coraliomargarita sinensis; details: change in Tm, threshold 2 °C; cells left empty in Table 3
R13 (WP_167859577-LBD) = format: binding, Paenibacillus cymbidii; details: change in Tm, threshold 2 °C; 2 mM ligand (Supplementary Fig. 7)
R5 (WP_131005693-LBD) = experiment: Thermal shift assay of the R5 LBD; format: binding, Clostridioides difficile; details: change in Tm, threshold 2 °C
R6 (WP_185834821-LBD) = R6 (WP_185834821-LBD) (Vibrio cholerae, UniProt Q9KPY8); experiment: Thermal shift assay of the R6 LBD; format: binding; details: change in Tm, threshold 2 °C
[1] = tested on: members of the family dCache_1PU (11 soluble LBDs); experiment: Thermal shift ligand screening of all dCache_1PU proteins (Biolog arrays PM3B and PM5); format: binding

SMILES: Cn1c(=O)c2c(ncn2C)n(C)c1=O [Caffeine, reference compound]
- Binding in thermal shift assay, R14 (R14 (WP_021170906-LBD)): Nts^b (no binding observed in thermal shift assays, i.e., compounds caused changes in the midpoint of protein unfolding (Tm) of less than 2 °C)
- Binding in thermal shift assay, R1 (R1 (WP_219614703-LBD)): Nts^b (no binding observed in thermal shift assays, i.e., compounds caused changes in the midpoint of protein unfolding (Tm) of less than 2 °C)
- Binding in thermal shift assay, R10 (Supplementary Table 3) (R10 (WP_110129388-LBD)): Nts (No binding observed in thermal shift assays, i.e. compounds caused changes in the midpoint of protein unfolding (Tm) of less than 2 ºC)
- Binding in thermal shift assay, R13 (R13 (WP_167859577-LBD)): Nts^b (no binding observed in thermal shift assays, i.e., compounds caused changes in the midpoint of protein unfolding (Tm) of less than 2 °C)
- Binding in thermal shift assay, R5 (R5 (WP_131005693-LBD)): Nts^b (no binding observed in thermal shift assays, i.e., compounds caused changes in the midpoint of protein unfolding (Tm) of less than 2 °C)
- Binding in thermal shift assay, R6 (R6 (WP_185834821-LBD)): Nts^b (no binding observed in thermal shift assays, i.e., compounds caused changes in the midpoint of protein unfolding (Tm) of less than 2 °C)

SMILES: CC(C)[C@H](N)C(=O)O [L-Val]
- Shift in the thermal shift assays [1]: did not produce any significant shift
